Molecular target: D(3) dopamine receptor (Homo sapiens, UniProt P35462)

The chains behind the UniProt entries cited, without tags or fusion partners.
UniProt P35462, whole entry: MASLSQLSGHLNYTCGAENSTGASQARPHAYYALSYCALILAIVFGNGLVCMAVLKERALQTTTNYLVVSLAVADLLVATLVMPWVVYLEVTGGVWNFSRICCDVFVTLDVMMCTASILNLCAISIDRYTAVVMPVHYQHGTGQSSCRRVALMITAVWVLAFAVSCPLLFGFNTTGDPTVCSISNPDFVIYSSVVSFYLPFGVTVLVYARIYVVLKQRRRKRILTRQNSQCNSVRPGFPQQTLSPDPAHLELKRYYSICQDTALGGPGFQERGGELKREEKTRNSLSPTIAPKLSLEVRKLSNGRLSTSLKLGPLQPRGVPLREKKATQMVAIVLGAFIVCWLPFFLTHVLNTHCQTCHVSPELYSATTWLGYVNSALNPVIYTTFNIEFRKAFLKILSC

**Q.** For `CCN1CCC[C@H]1CNC(=O)c1cc(S(N)(=O)=O)ccc1OC` [SULPIRIDE], which Ki is on record?
**A.** 120 nM

Reference: ChEMBL document CHEMBL1141881, “Modeling the similarity and divergence of dopamine D2-like receptors and identification of validated ligand-receptor complexes” (J Med Chem, 2005)
